Read-outs that look alike come from different tables or passages of the source.
Legend:
S. hyicus NCTC 10350 [1] = assay: Mouse peritonitis model, survival; assay type: in vivo; settings: ICR mice, S. hyicus NCTC 10350 10^9 CFU i.p., 7 days, 6 mice/group
Protocol: The mice (6 mice/group) were intraperitoneally infected with the exponential phase S. hyicus NCTC 10350 cells (1 × 10^9 CFU/mL, 1 mL) to establish a mouse peritonitis model. […] Survival of mice was recorded daily for 7 days.

S. hyicus NCTC 10350 [2] = assay: pH stability, inhibition zone assay; assay type: physicochemical; settings: 3 h, triplicate
Protocol: (§1) The stability of NZL or NZ2114 against S. hyicus NCTC 10350 was conducted by inhibition zone assays. To evaluate the thermal stability, 64 μg/mL NZL or NZ2114 was incubated at different temperatures (20 °C, 40 °C, 60 °C, 80 °C, and 100 °C) for 1 h. Besides, aliquots of NZL or NZ2114 were dissolved in different pH buffers in a range from 2.0 to 10.0 at 37 °C for 3 h to analyze the pH stability. NZL or NZ2114 was mixed with pepsin or trypsin solutions at a ratio of 10:1 (w/w) to determine the protease stability. The untreated peptides and buffers alone were used as positive controls and negative controls, respectively. All assays were conducted in triplicate.

S. hyicus NCTC 10350 [3] = assay: Thermal stability, inhibition zone assay; assay type: physicochemical; settings: 1 h, 64 μg/mL, inhibition zone against S. hyicus NCTC 10350, triplicate
Protocol: as §1

IL-1β = assay: Mouse peritonitis model, serum cytokine ELISA; assay type: in vivo; settings: 10 mg/kg
Protocol: (§2) Likewise, mice (15 mice/group) were injected with the exponential phase S. hyicus NCTC 10350 cells (1 × 10^9 CFU/mL, 1 mL) and treated with 10 mg/kg peptides or 60 mg/kg CRO. After 2 and 24 h post-treatment, sera were collected to test the levels of cytokines using enzyme linked immunosorbent assay (ELISA) kit. To evaluate bacterial translocation, organs were harvest from mice at 24-h post-treatment for colony counting; then, organs were removed from mice at 5 d post-treatment and observed through a light microscope to assess organ injury. The uninfected mice, the treated mice with CRO or PBS were served as the blank control, positive and negative control, respectively.

IL-6 = assay: Mouse peritonitis model, serum cytokine ELISA; assay type: in vivo; settings: 10 mg/kg
Protocol: as §2

TNF-α = assay: Mouse peritonitis model, serum cytokine ELISA; assay type: in vivo; settings: 10 mg/kg
Protocol: as §2

S. hyicus NCTC 10350 [4] = assay: Time-killing curves; assay type: cell-based; settings: 2× and 4× MIC; 1 × 10^5 CFU/mL in MHB; colony counting
Protocol: Time-kill curves were performed to assess the bactericidal rates of peptides against S. hyicus NCTC 10350 [25]. […] The samples were taken at regular intervals for colony counting. Cells treated with PBS and CRO were used as the negative control and positive control.

S. hyicus NCTC 10350 [5] = assay: Mouse peritonitis model, bacterial translocation; assay type: in vivo; settings: 10 mg/kg; 24 h post-treatment; mean, n = 5
Protocol: as §2

mouse erythrocytes = assay: Hemolysis; assay type: cell-based; settings: at 256 μg/mL; 8% (v/v) mouse erythrocytes in 0.9% NaCl, 37 °C, 1 h, 540 nm; n = 3
Protocol: The hemolytic activity of peptides against fresh mouse erythrocytes was evaluated as described previously. In brief, 8% (v/v) erythrocyte solution in 0.9% NaCl was mixed with peptide solution (1–256 μg/mL) in an equal volume; then the mixtures were incubated at 37 °C for 1 h, centrifuged at 5000 rpm for 5 min and measured at 540 nm on a microplate reader. The absorbance of 0.9% NaCl (A0) and 0.1% Triton X-100 (A100) was used as controls. The hemolysis percentages of peptide were calculated by the following equation: Hemolysis (%) = [(A − A0)/(A100 − A0)] × 100.

S. aureus ATCC 43300 = assay type: cell-based; settings: microbroth dilution, MHB, 37 °C, 16–20 h, triplicate
Protocol: The microbroth dilution method was used to evaluate the MIC values of new derivative peptides. […] The MIC value was defined as the lowest concentration where no visible bacteria growth occurred after overnight incubation. CRO was used as the positive control. All assays were conducted in triplicate.

[6] = tested on: intracellular S. hyicus NCTC 10350 in Hacat cells; assay type: cell-based; settings: 24 h treatment, mean, n = 3
Protocol: Hacat cells (2.5 × 10^5 cells/mL) were dispensed into a 12-well plate for 24 h. Besides, the mid-log phase S. hyicus NCTC 10350 (2.5 × 10^7 CFU/mL) were coincubated with Hacat cells for 0.5 h. Then, lysostaphin was supplemented to kill extracellular bacteria. Hereafter, cells were treated with peptides or CRO for 24 h and lysed with lysis buffer. The intracellular bacteria were processed for colony counting.

Hacat cells = assay: Cytotoxicity, MTT assay; assay type: cell-based; settings: within 256 μg/mL (1–256 μg/mL), n = 3
Protocol: The cytotoxicity of peptides toward Hacat cells was determined by the 3-(4,5-dimethylthiazol-2-yl)-2,5-diphenyltetrazolium bromide (MTT) assay according to a previous study.

S. hyicus NCTC 10350 [7] = assay: Mouse peritonitis model, organ injury by light microscope; assay type: in vivo; settings: 10 mg/kg, organs harvested at 5 d
Protocol: as §2

CC[C@H](C)[C@@H]1NC(=O)[C@H](CO)NC(=O)[C@H](CCCCN)NC(=O)[C@@H]2CSSC[C@@H](C(=O)N[C@@H](Cc3ccc(O)cc3)C(=O)O)NC(=O)[C@H](CCCCN)NC(=O)[C@@H]3CSSC[C@H](NC(=O)[C@H](CCCNC(=N)N)NC(=O)[C@H](CC(C)C)NC(=O)[C@H](CC(=O)O)NC(=O)[C@H](CC(=O)O)NC(=O)[C@H](CCC(=O)O)NC(=O)[C@H](CC(N)=O)NC(=O)[C@H](Cc4c[nH]c5ccccc45)NC(=O)[C@@H]4CCCN4C(=O)CNC(=O)[C@H](CC(N)=O)NC(=O)[C@@H](NC(=O)CNC(=O)[C@H](Cc4ccccc4)NC(=O)CN)CSSC[C@H](NC(=O)[C@H](Cc4ccc(O)cc4)NC(=O)CNC(=O)CNC(=O)[C@H](CCCCN)NC(=O)[C@H](Cc4ccc(O)cc4)NC(=O)CNC(=O)[C@H](CCCCN)NC1=O)C(=O)N[C@@H](C)C(=O)N[C@@H](CCCCN)C(=O)NCC(=O)NCC(=O)N[C@@H](Cc1ccccc1)C(=O)N[C@@H](C(C)C)C(=O)N3)C(=O)N[C@@H](Cc1c[nH]cn1)C(=O)N[C@@H](CC(N)=O)C(=O)N[C@@H](Cc1c[nH]cn1)C(=O)N2 [NZ2114]
Survival rate (S. hyicus NCTC 10350 [1]; 5 mg/kg i.p. at 2 h and 8 h post-infection): 33.3% | Survival rate (S. hyicus NCTC 10350 [1]; 10 mg/kg i.p. at 2 h and 8 h post-infection): 83.3% | pH stability (S. hyicus NCTC 10350 [2]; pH 2 to 10, 37 °C, inhibition zone against S. hyicus NCTC 10350): retained strong stable activity | Activity in the acidic environment (S. hyicus NCTC 10350 [2]; pH 4, 37 °C, inhibition zone against S. hyicus NCTC 10350, relative to untreated peptide): 86% | Thermal stability (S. hyicus NCTC 10350 [3]; 20 to 80 °C): good thermal stability | Activity after heating (S. hyicus NCTC 10350 [3]; 100 °C): no activity | Serum level of IL-1β (IL-1β; 2 h after treatment): 78.24 pg/mL | Serum level of IL-1β (IL-1β; 24 h after treatment): 14.47 pg/mL | Serum level of IL-6 (IL-6; 2 h after treatment): 958.45 pg/mL | Serum level of IL-6 (IL-6; 24 h after treatment): 78.28 pg/mL | Serum level of TNF-α (TNF-α; 2 h after treatment): 177.47 pg/mL | Serum level of TNF-α (TNF-α; 24 h after treatment): 4.01 pg/mL | Time within which S. hyicus NCTC 10350 cells were killed completely (S. hyicus NCTC 10350 [4]): ≤ 8 h | Bacterial counts in blood (S. hyicus NCTC 10350 [5]): 0.12 Log10 CFU/0.1 g | Bacterial counts in kidneys (S. hyicus NCTC 10350 [5]): 3.39 Log10 CFU/0.1 g | Bacterial counts in livers (S. hyicus NCTC 10350 [5]): 1.90 Log10 CFU/0.1 g | Bacterial counts in lungs (S. hyicus NCTC 10350 [5]): 2.87 Log10 CFU/0.1 g | Bacterial counts in spleens (S. hyicus NCTC 10350 [5]): 4.41 Log10 CFU/0.1 g | Maximum hemolysis (mouse erythrocytes): 1.35% | MIC (S. aureus ATCC 43300; 1 × 10^5 CFU/mL, peptides 1–256 μg/mL): 4 µg/mL | MIC (S. aureus ATCC 43300): 0.91 µM | Decrease of intracellular S. hyicus ([6]; 10× MIC): 88.53% | Killing rate of intracellular S. hyicus ([6]; 1000× MIC): 99.85% | Minimum cell viability (Hacat cells): 58.21% | Organ injury (livers, spleens, lungs, kidneys) (S. hyicus NCTC 10350 [7]): apparently less damaged

Source: publication PMC8196787, “Design and Pharmacodynamics of Recombinant Fungus Defensin NZL with Improved Activity against Staphylococcus hyicus In Vitro and In Vivo” (International Journal of Molecular Sciences, 2021)
